Where two headings read alike, the source gives them in different places.
What was measured:
[1] = biological target: T1, human ROR-1 endogenously expressed on JeKo-1 and MDA-MB-468 cells (human, UniProt Q01973); test: flow cytometry competition (cellular binning) on MDA-MB-468 cells: cells coated with titrated ATX-P-890, then a saturating dose of the labeled competitor 4A5-PE, whose signal is plotted in % Top MFI
T1 construct: whole, on cells; also called ROR-1 receptor
Experimental: (§1) Next, the anti-ROR-1 antibodies were fluorescently labeled with a secondary antibody.
(§2) In Step 2, a fluorescently labeled secondary antibody recognizing the novel antibodies was incubated with the samples.

[2] = biological target: T1, human ROR-1 endogenously expressed on …; test: cell-based or functional assay
[3] = biological target: T1, human ROR-1 endogenously expressed on …; test: flow cytometry (cellular binning): titration of the antibody on MDA-MB-468 cells, fluorescently labeled secondary antibody, % Top MFI
Experimental: as §1, §2

[4] = biological target: T1, human ROR-1 endogenously expressed on …; test: as above; remark: listed apart in the source
Experimental: as §1, §2

Hu/Cy/Rh ROR1 - His = biological target: T2, Hu/Cy/Rh ROR1 - His (Human/Cyno/Rhesus, UniProt Q01973, in part); test: SPR, purified Hu/Cy/Rh ROR1-His
T2 construct: Purified His-tagged ROR1 protein used in SPR; also called Human/Cyno/Rhesus ROR-1; not shown: His tag

B1: ATX-P-890 (antibody, V domains shown)
VH: QVQLVQSGAEVKKPGASVKVSCKASGYTFTGYYMHWVRQAPGQGLEWMGWINPNSGGTNYAQKFQGRVTMTRDTSISTAYMELSRLRSDDTAVYYCVRDQVQLERFDSWGQGTLVTVSS
VL: [about 100 residues not shown]
[1]
  IC50 (read off the curve): ~1 nM
[2]
  JeKo-1 (%) cellular internalization: 70%
  MDA-MB-468(%) cellular internalization: 80%
[3]
  EC50 (read off the curve): ~0.9 nM
[4]
  EC50 (read off the curve): ~0.8 nM
Hu/Cy/Rh ROR1 - His
  Kd: 8.4 nM
  koff: 0.00314 s⁻¹
  kon: 392000 M⁻¹ s⁻¹
